In the data set the test system is L6. The data set is described as follows: Cytotoxicity against rat L6 cells assessed as decrease in cell viability after 72 hrs by resazurin dye based fluorescence analysis. Conditions: for Activity: rat, l6, 72 h. For orientation: Resazurin is reduced to fluorescent resorufin, in cell work by metabolically active cells.

Each structure is given as a SMILES string.

As for `CC(C)C[C@]12OO[C@](C)(OO1)C2C` (stereo not given in full), the Activity entry was “Non-toxic”.
Same read-out and setting: as for `CC[C@]12C[C@](CC(C)C)(OO1)OO2`, the entry is “Non-toxic”.
For the compound `CC(C)C[C@]12C[C@](C)(OO1)OO2`, the IC50 (l6) turned out to be 4.4 µM.
In the case of `CC(=O)CCC1(Cc2ccc([N+](=O)[O-])cc2)[C@]2(C)OO[C@@]1(C)OO2` (stereo not given in full), the Activity result is reported as “Non-toxic”.
Turning to `CC(C)(C)[C@]12C[C@](C(C)(C)C)(OO1)OO2`, the Activity entry is recorded as “Non-toxic”.

The term IC50 denotes the midpoint of a concentration-inhibition curve.

For the origin of these results see ChEMBL document CHEMBL3596151, “Elucidation of the in vitro and in vivo activities of bridged 1,2,4-trioxolanes, bridged 1,2,4,5-tetraoxanes, tricyclic monoperoxides, silyl peroxides, and hydroxylamine derivatives against Schistosoma mansoni” (Bioorg Med Chem, 2015).
